Data as given in US20240058459A1 (Ashvattha Therapeutics, Inc., priority 2019, published 2024).

Legend:
Toxicokinetics in rats = assay type: in vivo, Sprague-Dawley rats; conditions: D-4517 12 mg/kg daily IP, sunitinib 30 mg/kg daily oral
[1] = tested on: corneal neovascularization; conditions: topical, rabbit model of corneal neovascularization; cited from earlier work

SMILES: CCN(CC)CCNC(=O)c1c(C)[nH]c(/C=C2\C(=O)Nc3ccc(F)cc32)c1C [free sunitinib, sunitinib, reference compound]
- time post-dosing up to which plasma concentration was measurable (Toxicokinetics in rats): ≥ 24 h
- effectiveness relative to bevacizumab [1]: almost three times as effective as bevacizumab
